In PMC7010297, “How the initiating ribosome copes with ppGpp to translate mRNAs” (PLoS Biology, 2020):

Biological target: T1, IF2-bound 30S IC (Escherichia coli, UniProt P0A705)
T1 construct: 6xHis (N); made in house
Assay: 30S IC formation by MST, guanosine nucleotide titration
Assay type: binding
Conditions: 30S IC programmed with mMF1; read-out: KD of GTP for the 30S IC
Source text: To monitor the interaction of initiator tRNA and 30S ribosomal subunits, we used Microscale Thermophoresis (MST) with a fluorescently labelled initiator tRNA (Bpy-tRNAi) (Fig 1B). MST allows to measure fluorescence in a constrained space. Changes on the readout derive from molecular drifts resulting from small thermal equilibrium perturbations. Upon equilibrium perturbations, the patterns of Bpy-tRNAi migration away from the observation space are related to bound and unbound states (Fig 1B). […] On the contrary, a decrease in thermophoresis indicated the dissociation of Bpy-tRNAi. The relation between fluorescence measured at both equilibriums (Ff to Fi, after and prior to the perturbation, respectively) as a function of ligand concentration allowed to determine dissociation constants of the interaction (Fig 1C).
Continuous lines indicate nonlinear regression fittings with a quadratic equation. Three measurements were performed; mean and standard deviation are plotted (S1 Data). […] (D) Formation of 70S IC as measured by Bpy-tRNAi accommodation in the P site of the ribosome; 0.1 μM 30S ICs were formed with Bpy-tRNAi and rapidly mixed with 0.3 μM 50S subunits on a stopped-flow apparatus as described in [14]. […]
MST was calculated from the respective fluorescence time dependencies (S3 Fig). […]

Compound: Nc1nc2c(ncn2[C@@H]2O[C@H](COP(=O)(O)OP(=O)(O)OP(=O)(O)O)[C@@H](O)[C@H]2O)c(=O)[nH]1 [GTP, guanosine triphosphate]
- Kd: 650 ± 50 nM
